# Membrane permeability of cyclic peptides

Values of Townsend et al. 2020, doi:10.26434/chemrxiv.13335941.v1, as listed in CycPeptMPDB.

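The data file gives no further conditions (lipid, pH, time, direction or concentration), and values from different papers need not be comparable. Other peptides of the study may be missing here. Entries at the database's floor value (log10 P of -10) are not listed.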

PAMPA is the parallel artificial membrane permeability assay, which has no cells and reads passive diffusion.
Permeability is in 10^-6 cm/s, converted from the database's log10 values; higher is more permeable.

For CCCN1CC(=O)N[C@H](CC(C)C)C(=O)N[C@H](CC(C)C)C(=O)N2CCC[C@H]2C(=O)N(Cc2ccccc2)CC(=O)N[C@@H](Cc2ccccc2)C(=O)N2CCC[C@H]2C1=O the data give PAMPA 1.7 × 10^-6 cm/s. CC(C)C[C@@H]1C(=O)N(Cc2ccccc2)CC(=O)N2CCC[C@@H]2C(=O)N(C)[C@@H](CC(C)C)C(=O)N[C@@H](Cc2ccccc2)C(=O)N2CCC[C@H]2C(=O)N[C@@H](Cc2ccccc2)CC(=O)N1C has PAMPA 2.6 × 10^-6 cm/s. CC(C)C[C@@H]1NC(=O)[C@H]2CCCN2C(=O)[C@@H](CC(C)C)NC(=O)[C@@H](CC(C)C)NC(=O)[C@H](C)N(C)C(=O)[C@H](Cc2ccccc2)NC1=O is reported with PAMPA 0.78 × 10^-6 cm/s. For CC(C)C[C@H]1NC(=O)[C@@H](C)N(C)C(=O)[C@H](Cc2ccccc2)NC(=O)CN(Cc2ccccc2)C(=O)[C@@H]2CCCN2C(=O)C[C@H](Cc2ccccc2)NC1=O the data give PAMPA 1.3 × 10^-6 cm/s.

Listed for CCCN1CC(=O)N(C)[C@@H](CC(C)C)C(=O)N(C)[C@H](CC(C)C)C(=O)N2CCC[C@@H]2C(=O)N(C)[C@@H](CC(C)C)C(=O)N[C@@H](Cc2ccccc2)C1=O: PAMPA 13 × 10^-6 cm/s. CC(C)C[C@@H]1NC(=O)[C@H](C)NC(=O)[C@H]2CCCN2C(=O)[C@H](Cc2ccccc2)NC(=O)CN(Cc2ccccc2)C(=O)[C@H]2CCCN2C(=O)[C@H](CC(C)C)NC1=O is reported with PAMPA 1.7 × 10^-6 cm/s. For CC(C)C[C@@H]1NC(=O)[C@@H](C)N(C)C(=O)[C@@H]2CCCN2C(=O)[C@H](Cc2ccccc2)NC(=O)CN(Cc2ccccc2)C(=O)[C@H]2CCCN2C(=O)[C@H](CC(C)C)NC1=O the data give PAMPA 1.1 × 10^-6 cm/s. Listed for CC(C)C[C@@H]1C(=O)N[C@@H](Cc2ccccc2)C(=O)N2CCC[C@@H]2C(=O)N[C@H](C)C(=O)N(Cc2ccccc2)CC(=O)N[C@@H](Cc2ccccc2)CC(=O)N2CCC[C@@H]2C(=O)N1C: PAMPA 1.5 × 10^-6 cm/s.

CC(C)C[C@@H]1C(=O)N2CCC[C@H]2C(=O)N(C)[C@H](CC(C)C)C(=O)N[C@@H](Cc2ccccc2)C(=O)N2CCC[C@H]2C(=O)N(C)[C@H](C)C(=O)N[C@H](CC(C)C)C(=O)N1C is reported with PAMPA 5.5 × 10^-6 cm/s. For CC(C)C[C@@H]1NC(=O)[C@@H]2CCCN2C(=O)[C@H](CC(C)C)NC(=O)[C@@H](CC(C)C)NC(=O)[C@H](C)N(C)C(=O)[C@H](Cc2ccccc2)NC1=O the data give PAMPA 0.89 × 10^-6 cm/s. For CCCN1CC(=O)N(Cc2ccccc2)CC(=O)N(C)[C@H](CC(C)C)C(=O)N2CCC[C@@H]2C(=O)N(C)[C@H](CC(C)C)C(=O)N[C@@H](Cc2ccccc2)C(=O)N2CCC[C@@H]2C1=O the data give PAMPA 1.2 × 10^-6 cm/s. Listed for CC(C)C[C@@H]1NC(=O)[C@@H]2CCCN2C(=O)[C@@H](CC(C)C)NC(=O)[C@@H](CC(C)C)N(C)C(=O)[C@@H](C)NC(=O)[C@H](Cc2ccccc2)NC1=O: PAMPA 0.87 × 10^-6 cm/s.

The entry for CC(C)C[C@H]1C(=O)N[C@@H](Cc2ccccc2)C(=O)N2CCC[C@@H]2C(=O)N(C)[C@@H](C)C(=O)N(Cc2ccccc2)CC(=O)N[C@@H](Cc2ccccc2)CC(=O)N2CCC[C@@H]2C(=O)N1C lists PAMPA 2 × 10^-6 cm/s. CCCN1CC(=O)N[C@H](CC(C)C)C(=O)N[C@H](CC(C)C)C(=O)N2CCC[C@@H]2C(=O)N(C)[C@H](CC(C)C)C(=O)N[C@@H](Cc2ccccc2)C1=O is reported with PAMPA 0.95 × 10^-6 cm/s. CC(C)C[C@@H]1NC(=O)[C@@H](C)N(C)C(=O)[C@H]2CCCN2C(=O)[C@H](Cc2ccccc2)NC(=O)CN(Cc2ccccc2)C(=O)[C@H]2CCCN2C(=O)[C@@H](CC(C)C)N(C)C1=O has PAMPA 0.76 × 10^-6 cm/s.

A selection of 2 entries from above:

| SMILES | PAMPA (10^-6 cm/s) |
|---|---|
| CC(C)C[C@@H]1C(=O)N(Cc2ccccc2)CC(=O)N2CCC[C@@H]2C(=O)N(C)[C@@H](CC(C)C)C(=O)N[C@@H](Cc2ccccc2)C(=O)N2CCC[C@H]2C(=O)N[C@@H](Cc2ccccc2)CC(=O)N1C | 2.6 |
| CC(C)C[C@@H]1NC(=O)[C@@H]2CCCN2C(=O)[C@H](CC(C)C)NC(=O)[C@@H](CC(C)C)NC(=O)[C@H](C)N(C)C(=O)[C@H](Cc2ccccc2)NC1=O | 0.89 |